Laboratory results: patent publication US20100035904A1, “PHE[…]; METHODS OF MAKING; AND METHODS OF USE THEREOF” (priority 2008, published 2010)

Assay: Analysis of residual solids from water slurry (XRPD, 1H-NMR) for form conversion
Type: physicochemical
Conditions: water slurry overnight, ambient temperature

Row | Substance | XRPD of residual solid from water slurry / aqueous solubility
1 | phenobarbital benzathine | consistent with the initial material
2 | phenobarbital betaine [phenobarbital betaine salt] | unique compared to the initial material
